Data on one compound can be found in ChEMBL document CHEMBL5241065, “If small molecules immunotherapy comes, can the prime be far behind?” (Eur J Med Chem, 2021).

The chains behind the UniProt entries cited, without tags or fusion partners. Where a name states a change or a piece, a line headed by the entry shows the natural chain unless it says otherwise.
UniProt Q06187: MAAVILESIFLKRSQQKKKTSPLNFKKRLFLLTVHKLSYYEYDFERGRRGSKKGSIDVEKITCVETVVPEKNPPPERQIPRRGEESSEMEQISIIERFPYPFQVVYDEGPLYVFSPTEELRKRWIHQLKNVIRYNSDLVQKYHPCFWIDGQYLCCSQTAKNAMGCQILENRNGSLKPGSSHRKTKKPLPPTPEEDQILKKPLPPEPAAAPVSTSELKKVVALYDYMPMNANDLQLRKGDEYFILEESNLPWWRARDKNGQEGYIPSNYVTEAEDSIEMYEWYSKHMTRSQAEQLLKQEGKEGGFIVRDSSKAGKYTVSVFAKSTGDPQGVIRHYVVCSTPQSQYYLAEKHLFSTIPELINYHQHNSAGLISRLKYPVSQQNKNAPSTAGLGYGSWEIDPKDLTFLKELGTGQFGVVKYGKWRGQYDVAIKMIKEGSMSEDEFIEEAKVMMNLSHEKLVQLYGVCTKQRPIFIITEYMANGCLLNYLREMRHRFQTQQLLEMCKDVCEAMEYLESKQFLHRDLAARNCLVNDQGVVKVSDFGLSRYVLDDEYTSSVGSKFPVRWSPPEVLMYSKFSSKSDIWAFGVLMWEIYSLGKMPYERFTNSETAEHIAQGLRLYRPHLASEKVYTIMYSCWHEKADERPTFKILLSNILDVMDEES

This assay has as its target Tyrosine-protein kinase BTK (Homo sapiens, UniProt Q06187).

One may read the IC50 as the concentration at which inhibition is half-maximal. A higher IC50 goes with weaker potency in that assay. `C=CC(=O)Nc1cccc(Nc2nc(Nc3ccc(OCCOC)cc3)ncc2F)c1` [SPEBRUTINIB] showed a half-maximal inhibitory concentration (IC50) of 0.5 nM.
